Source: PubChem BioAssay (National Center for Advancing Translational Sciences (NCATS))
An excerpt weighted towards active compounds, which were near 16% of everything screened.
TDP1 cell CPT = growth inhibition of DT40 Tdp1-/-;hTDP1 cells with camptothecin (screen for TDP1 inhibitors) | Potency, µM (highest dose often 46.2 µM), for the others: at the highest dose activity change, negative = growth inhibition, actives largely listed as inhibitors | chicken DT40 Tdp1-/-;hTDP1 cells + 20 nM CPT, ATP luminescence, 48 h | AID 686979 | 420,000 tested, 12% active; also: potency is read from the fitted curve at half-maximal effect; % is scaled to controls: 0 for no effect and ±100 for the full control effect; nearly all actives have a fitted effect of over 55% in size
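Cell growth measured by CellTiter-Glo luminescence after a minimum 48 h, 37 C compound exposure with 20 nM CPT in Tdp1-knockout DT40 cells stably expressing hTDP1, seeded 400/well; qHTS titration format.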
TDP1 cell noCPT = qHTS for Inhibitors of human tyrosyl-DNA phosphodiesterase 1 (TDP1): qHTS in cells in absence of CPT. DT40 Tdp1-/- hTDP1 cells, no CPT, ATP luminescence, 48 h. Potency, µM (top dose mostly 46.2 µM), for inactives: at the top dose activity change, negative = growth inhibition, usual class: inhibitors. 420,000 tested, 15% active. AID 686978, 2013; also: potency is read from the fitted curve at half-maximal effect; % is scaled to controls: 0 for no effect and ±100 for the full control effect; nearly all actives have a fitted effect of over 55% in size
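Luminescent ATP content (CellTiter-Glo) served as the growth readout. Knockout chicken DT40 cells expressing human TDP1 were exposed to compounds without camptothecin for a minimum 48 hr at 37 °C.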
miR-21 FLuc = miR-21 reporter, rising signal | 340,000 tested, under 10 active | AID 2288 | HeLa miR-21 FLuc reporter, luciferase, 48 h | Potency, µM (titrated, usually from 38.3 µM), for inactives: at the highest dose reporter change, positive = more light; active = well fitted rising curve with a large enough effect; inconclusive = small, poorly fitted or top-dose-only effect; inactive = no such curve, though single readings can be large or run the other way;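 further: % of control where 0% means no effect; miR-21 action dims this reporter so a rising signal means less miR-21 action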
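Compounds were titrated across several concentrations (up to approximately 40 uM) and incubated 48 hours with HeLa miR-21-FLuc reporter cells (miR-21 target sequence downstream of FLuc, endogenous miR-21). Readout was firefly luciferase luminescence after lytic detection reagent.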
uPA surface inh = cell surface uPA generation inhibition. Potency, µM (titrated, usually from 38.3 µM), for inactives: at the highest dose activity change, negative = inhibition, hits mostly inhibitors. cell surface uPA generation assay, qHTS. 330,000 tested, 0.31% active. AID 540303; active = well fitted inhibition curve with a large enough effect; inconclusive = small, poorly fitted or top-dose-only effect; inactive = no such curve, though single readings can be large or run the other way; tested in mouse RAW 264.7 cells; also: potency is read from the fitted curve at half-maximal effect; % is scaled to controls: 0 for no effect and ±100 for the full control effect; nearly all actives have a fitted effect of over 55% in size
TDP1 block = blocks human tyrosyl-DNA phosphodiesterase 1. recombinant TDP1, AlphaScreen DNA substrate cleavage. 350,000 tested, 0.28% active. AID 485290. Potency, µM (series often up to 130 µM), for inactives: at the top dose activity change, negative = inhibition, actives largely listed as inhibitors. Q9NUW8; also: potency is read from the fitted curve at half-maximal effect; % is scaled to controls: 0 for no effect and ±100 for the full control effect; nearly all actives have a fitted effect of over 40% in size
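Enzyme-compound mixtures sat 15 min at room temperature, followed by a 5 min reaction with 15 nM final substrate and 10 min with AlphaScreen beads. Recombinant human Tdp1 was used at 1 nM final.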
The depositor's hits bear a star; u = inconclusive; x = not tested or not shown; ! = a repeat was not active; [ ] = dose if it differs, or a comment. Unless noted, calls follow the shape of the dose curve; as a rule, active = well fitted curve in the direction sought with a large enough effect; inconclusive = small, poorly fitted or top-dose-only effect, or another doubt; inactive = no such curve, though single readings can be large; an effect the other way counts as inactive or inconclusive.

SMILES	TDP1 cell CPT	TDP1 cell noCPT	miR-21 FLuc	uPA surface inh	TDP1 block
CCOC(=O)N1CCN(C(=O)CN(c2ccccc2OC)S(=O)(=O)c2ccc(C)cc2)CC1	-1%	-18%	4%	-4%	1%
CCOC(=O)C1CCC(CN(Cc2ccc(Cl)cc2)S(=O)(=O)c2cc(Cl)cc(Cl)c2)CC1 (centres undefined)	21µM*	10µM*	-1%	x	-5%
CCOc1ccccc1N(CC(=O)NC1CCCC1)S(=O)(=O)c1ccc(C)cc1	u	21µM*	3%	1%	-15%[0.0935 µM]
COc1cccc(-c2csc(-c3c(N)c(C(=O)c4ccc5c(c4)OCO5)n4ccccc34)n2)c1	-30%	-15%	-1%	x	-5%
Cc1ccc(C(=O)NC(=S)NCC2CCCO2)cc1[N+](=O)[O-] (centres undefined)	-8%	u	-13%	-5%	0%
COc1cccc(N(CC(=O)N2CCC(C)CC2)S(=O)(=O)c2ccc(C)cc2)c1	21µM*	15µM*	28%	x	4%[12.3 µM]
CCOC(=O)N1CCN(C(=O)CS(=O)(=O)c2cn(Cc3ccc(Cl)cc3)c3ccccc23)CC1	23µM*	16µM*	5%	7%	9%
CCOC(=O)N1CCN(C(=O)CN(Cc2ccc(Cl)cc2)S(C)(=O)=O)CC1	5%	3%	-1%	0%	5%
CCOC(=O)N1CCN(C(=O)CS(=O)(=O)c2cn(Cc3ccccc3Cl)c3ccccc23)CC1	u	u	-1%	4%	3%
CCOC(=O)N1CCN(C(=O)CN(Cc2ccc(Cl)cc2)S(=O)(=O)c2ccc(C)cc2)CC1	16µM*	u	-1%	x	-1%
CCOc1ccccc1N(CC(=O)NC1CCCCC1)C(=O)c1nsc(Cl)c1Cl	-24%	26µM*	17%	8%	7%
CCCC1(CCC)NC(=O)N(CC(=O)Nc2cccc(OC)c2)C1=O	-11%	-10%	8%	3%	1%
COc1cc(NC(=O)c2cc3c(s2)-c2ccccc2OC3)cc(OC)c1OC	16µM*	8.2µM*	u	x	6%
O=C(O)c1cc2c(s1)-c1ccccc1OC2	-23%	-22%	-11%	1%	-6%
O=C(Nc1cccc(C(F)(F)F)c1)c1cc2c(s1)-c1ccccc1OC2	20%	-20%	11%	-4%	-6%
COC(=O)c1ccccc1NC(=O)c1cc2c(s1)-c1ccccc1OC2	16µM*	u	-5%	x	-6%
O=c1cnc2cnc(N3CCOCC3)nc2n1C1CC1	0%	2%	x	x	x
O=c1c(O)cc(C2Oc3cc(O)cc(O)c3CC2O)cc2c(C3Oc4cc(O)cc(O)c4CC3O)cc(O)c(O)c12 (centres undefined)	4.6µM*	3.3µM*	x	x	x
CC(C)(C)C(=O)N(Cc1ccc(Cl)cc1)c1cnccn1	u	12µM*	9%	3%	x
Cc1ccc(C2=NN(CC(=O)NCCc3ccccc3)C(=O)CC2)cc1	u	-23%	-6%	x	8%
CC(/C=N\Nc1nnc2c(n1)[nH]c1c(C)cccc12)=C\c1ccco1	9.2µM*	10µM*	-11%	-6%	7%
C=C(C)Cn1c(SCC(=O)N/N=C/c2c(O)ccc3ccccc23)nc2ccccc2c1=O	7.3µM*	6.5µM*	4%	2%	6%
C=C(C)Cn1c(SCC)nc2ccccc2c1=O	u	10µM*!	-9%	1%	-1%
Cc1nn(-c2ccccc2)c(C)c1/C=N/NC(=O)CSc1nc2ccccc2c(=O)n1-c1ccc(Br)cc1	u	u	-7%	6%	0%
Cc1ccc(-n2c(SCC(=O)N/N=C/c3c(C)nn(-c4ccccc4)c3C)nc3ccccc3c2=O)cc1	21µM*	u	-7%	16%	0%
Cc1ccc(/C=N/NC(=O)CSc2nc3ccccc3c(=O)n2-c2ccccc2)s1	12%	-25%	-4%	8%	0%
C=C(C)Cn1c(SCC#N)nc2ccccc2c1=O	-5%	-20%	-7%	-9%	0%
O=C(CCCN1C(=O)[C@H]2CC=CC[C@H]2C1=O)NCc1nc(-c2ccccc2)no1	-3%	8%	-5%	4%	6%
COc1cnc(-c2ccccn2)nc1N(C)C	u	2.9µM*	14%	-10%	9%
COc1cnc(-c2ccccn2)nc1Oc1cccc(Cl)c1	18µM*	8.2µM*	19%	-4%	10%
COc1cnc(-c2ccccc2)nc1Oc1cccc(C)c1	u	u	-2%	-9%	-10%
COc1cnc(-c2ccccn2)nc1Oc1c(C)cccc1C	3.3µM*	3.3µM*	28%	11%	4%
CN(C)c1ncc2nc(CCc3ccccc3)c(=O)n(CCC#N)c2n1	8%	-29%	x	x	x
N#Cc1c(N)nc(Sc2ccc(Cl)cc2)c(C#N)c1-c1ccccc1Cl	16µM*	15µM*	u	-22%	3%
O=C(Nc1ccc(C(=O)N2CCN(c3cccc(Cl)c3)CC2)cc1)c1nsc2ccccc12	u	13µM*	-23%	x	3%
O=C(Nc1cccc(C(=O)N2CCN(c3cccc(Cl)c3)CC2)c1)c1ccccc1	16µM*	26µM*	19%	u	11%
O=C(Nc1cccc(C(=O)N2CCN(c3ccc(Cl)cc3)CC2)c1)c1nsc2ccccc12	15µM*	10µM*	-7%	x	11%
O=C(Nc1ccc(C(=O)N2CCN(c3ccccc3)CC2)cc1)c1nsc2ccccc12	u	u	-59%	x	5%
O=C(Nc1cccc(C(=O)N2CCN(c3ccccc3F)CC2)c1)c1nsc2ccccc12	u	u	-17%	x	8%
Cc1ccc(C)c(N2CCN(C(=O)c3ccc(NC(=O)c4nsc5ccccc45)cc3)CC2)c1	21µM*	18µM*	-31%	x	3%
O=C(Nc1cccc(C(=O)N2CCN(c3ccccc3)CC2)c1)c1ccco1	-23%	-24%	1%	1%	3%
CCOC(=O)C1=C(C)NC(C)=C(C(=O)OCC)C1C(=O)OCC(=O)N1CCCCC1C (centres undefined)	9%	3%	x	16%	0%
Cn1c(CNC(=O)c2ccccc2F)nnc1SCc1ccc(Cl)cc1	-10%	-10%	3%	3%	3%
O=C(Nc1cccc(C(=O)N2CCN(c3cccc(Cl)c3)CC2)c1)c1nsc2ccccc12	18µM*	16µM*	-27%	x	-3%
COc1ccccc1-c1noc2c1C(=O)N(Cc1cn(-c3ccccc3OC)nn1)CC2	u	18µM*	x	x	x
COc1ccccc1-c1noc2c1C(=O)N(C(=O)OC(C)(C)C)CC2	-8%	-7%	x	x	x
CC(C)C(=O)Nc1ccccc1C(=O)OCc1cc(=O)n2nc(C3CC3)sc2n1	-16%	u	-5%	x	6%
COCCNC(=O)Cc1c(C)c2cc3c(cc2oc1=O)OC(C)(C)CC3	u	u	-32%	-4%	x

A different layout for part of the listing above:
SMILES: COc1ccccc1-c1noc2c1C(=O)N(Cc1cn(-c3ccccc3OC)nn1)CC2
  TDP1 cell CPT = u | TDP1 cell noCPT = 18µM* | miR-21 FLuc = x | uPA surface inh = x | TDP1 block = x

SMILES: COc1ccccc1-c1noc2c1C(=O)N(C(=O)OC(C)(C)C)CC2
  TDP1 cell CPT = -8% | TDP1 cell noCPT = -7% | miR-21 FLuc = x | uPA surface inh = x | TDP1 block = x

SMILES: CC(C)C(=O)Nc1ccccc1C(=O)OCc1cc(=O)n2nc(C3CC3)sc2n1
  TDP1 cell CPT = -16% | TDP1 cell noCPT = u | miR-21 FLuc = -5% | uPA surface inh = x | TDP1 block = 6%

SMILES: COCCNC(=O)Cc1c(C)c2cc3c(cc2oc1=O)OC(C)(C)CC3
  TDP1 cell CPT = u | TDP1 cell noCPT = u | miR-21 FLuc = -32% | uPA surface inh = -4% | TDP1 block = x
